Measured values from ChEMBL document CHEMBL1145069, “Stereospecific synthesis of 5-substituted 2-bisarylthiocyclopentane carboxylic acids as specific matrix metalloproteinase inhibitors” (J Med Chem, 2003).

Columns and labels:
[1] = molecular target: Collagenase 3 (Homo sapiens, UniProt P45452); assay: Inhibitory activity against matrix metalloprotease-13 (MMP13)
[2] = molecular target: T1, Interstitial collagenase (Homo sapiens, UniProt P03956); assay: Inhibitory activity against matrix metalloprotease-1 (MMP1)
T1 sequence (P03956 whole entry): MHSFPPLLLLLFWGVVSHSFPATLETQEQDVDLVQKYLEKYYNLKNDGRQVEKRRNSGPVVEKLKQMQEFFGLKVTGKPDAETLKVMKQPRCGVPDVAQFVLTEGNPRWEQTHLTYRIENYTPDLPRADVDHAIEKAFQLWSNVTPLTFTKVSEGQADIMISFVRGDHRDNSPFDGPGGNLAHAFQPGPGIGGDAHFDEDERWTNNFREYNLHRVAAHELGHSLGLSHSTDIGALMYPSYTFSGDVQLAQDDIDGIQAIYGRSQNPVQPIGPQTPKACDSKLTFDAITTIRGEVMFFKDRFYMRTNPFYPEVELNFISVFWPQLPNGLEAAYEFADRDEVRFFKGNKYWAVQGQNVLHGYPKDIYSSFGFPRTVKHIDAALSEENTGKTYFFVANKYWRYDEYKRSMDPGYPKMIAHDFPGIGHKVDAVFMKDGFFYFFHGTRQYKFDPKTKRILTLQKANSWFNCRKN

Row | SMILES | IC50 [1] [nM] | IC50 [2] [nM]
1 | CN1C(=O)N(C[C@H](C(=O)NO)[C@@H](CC2CCCC2)C(=O)N2CCCCC2)C(=O)C1(C)C | 3.4 | 
2 | O=C(O)[C@H]1[C@H](CN2C(=O)c3ccccc3C2=O)CC[C@@H]1S(=O)(=O)CCc1ccc(-c2ccc(F)cc2)cc1 |  | 5900
